Measured melting point values of organic chemicals

Source: data files of OPERA 2.9 (Mansouri et al.), github.com/kmansouri/OPERA.

The melting point is given in degrees Celsius.
The databases behind each value are named after "via".

structure (SMILES)	MP (°C)	via
CC(C)c1ccc(C=O)cc1[N+](=O)[O-]	51	OCHEM
CCC/C=C/C=O	-55.6	OCHEM
O=c1[nH]snc1N1CCOCC1	193	OCHEM
O=S1(=O)N=C(Cl)c2ccccc21	122	OCHEM
NC(=O)c1ccc(N)cc1Cl	164	OCHEM
NC(=NO)C(c1ccccc1)c1ccccc1	125	OCHEM
Cc1nccn1CCc1nc(N)nc(N)n1	255	eChemPortal
CN1CCN(c2ncc(Br)c(OCc3ccccc3)n2)CC1	62.5	OCHEM
S=C1NCCO1	96	OCHEM
Clc1ccc(Oc2ccc(Cl)c(Cl)c2Cl)c(Cl)c1Cl	138	QSARDB
Nc1cc2c(cc1C(=O)O)OCCO2	190	OCHEM
C/C=C/C(=O)C1C(C)=CCCC1(C)C (stereo partly drawn)	4	eChemPortal
O=C(O)CN1C(=O)CNC1=O	186	OCHEM
Clc1ccccc1NNc1ccccc1Cl	87	PubChem
Cc1ccc(NC(=O)/C=N/O)cc1	146	OCHEM
NC(=O)NCCCCCC(=O)O	176	OCHEM
O=C(O)c1cn(-c2ccccc2)nc1-c1cccnc1	239	OCHEM
COc1ccc(C(=O)CCl)c(OC)c1	49	OCHEM
CC(=O)OC(C)(C)Cc1ccccc1	30.3	PubChem, eChemPortal
CCCCC(CC)COC(=O)CC(O)C(=O)OCC(CC)CCCC (stereo unspecified)	-80.15	eChemPortal
Clc1cc(-c2c(Cl)c(Cl)c(Cl)c(Cl)c2Cl)c(Cl)c(Cl)c1Cl	205	QSARDB
CC(Cl)C(=O)c1ccc(C(C)(C)C)cc1 (stereo unspecified)	19	OCHEM
Cc1ccc(C)n1CC(=O)O	100	OCHEM
Cc1ccc(NC(=O)CCl)cc1Cl	74	OCHEM
O=C(O)c1ccc2c3c(ccc(C(=O)O)c13)C(=O)OC2=O	196	eChemPortal
CC(C)CNC[C@@H](O)[C@H](Cc1ccccc1)NC(=O)OC(C)(C)C	110.1	eChemPortal
O=C1C(=O)N(Cc2ccc(Cl)cc2)c2ccccc21	164	OCHEM
O=C(O)COCCOCC(=O)O	79	eChemPortal
CCOc1ccc(/N=C(\C)Nc2ccc(OCC)cc2)cc1.Cl	191	OCHEM
O=c1[nH][nH]c(=O)c2ccccc12	343.5	OCHEM
CCOc1cc(C=O)cc(Br)c1OC	53	OCHEM
C=CC(C)(O)CCCC(C)CCCC(C)CCCC(C)C (stereo unspecified)	-79	eChemPortal
N=C(N)SCCC(=O)O	160	eChemPortal
N=C(NO)c1ccc([N+](=O)[O-])cc1	188	OCHEM
COc1cc(C#N)ccn1	95	OCHEM
O=C1C=CC(Cl)=CC1=C1C=CNO1	202	OCHEM
COc1ccccc1Nc1ccc(N)cc1	74	OCHEM
COc1cccc(C)c1C(=O)O	140	eChemPortal
O=S(=O)(Cl)c1ccc2c(c1)CCC2	37.5	OCHEM
Nc1ccc(S(=O)(=O)Nc2cccc(F)c2)cc1	169	OCHEM
CCn1cc[nH]c1=S	79	OCHEM
Cc1ccc(S(N)(=O)=O)c(C)c1	140	OCHEM

Again, the 3 entries with the lowest MP:

structure (SMILES)	MP (°C)	via
CCCCC(CC)COC(=O)CC(O)C(=O)OCC(CC)CCCC (stereo unspecified)	-80.15	eChemPortal
C=CC(C)(O)CCCC(C)CCCC(C)CCCC(C)C (stereo unspecified)	-79	eChemPortal
CCC/C=C/C=O	-55.6	OCHEM

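OPERA's authors assembled the values from existing databases and did not measure them anew. One number stands for a compound and property, with no spread given. How each value was measured is not recorded, so precision varies. A value may pool stereoisomers or salt forms, and the file does not say which form was measured. Unmarked limits or estimates from the upstream databases cannot be ruled out.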